Laboratory results reported in patent US20040219600A1, “Method for determining sensitivity to environmental toxins and susceptibility to parkinson's disease” (priority 2002, published 2004).

Columns and labels:
GSTmu = test: Northern analysis of GSTmu mRNA in brain after MPTP; assay type: in vivo, mouse; conditions: after administration of MPTP
Description: (§1) Studies have shown that different members of the glutathione S-transferase family (pi, alpha and mu) are differentially expressed throughout the body (Johnson J A, el Barbary A, Kornguth S E, Brugge J F, Siegel F L, Glutathione S-transferase Isoenzymes in Rat Brain Neurons and Glia, J. Neurosci. 13:2013-23 (1993)) although at this time no information has been published on the expression of these genes in the substantia nigra.

GSTpi = test: Northern analysis of GSTpi mRNA in brain after MPTP; assay type: in vivo, mouse; conditions: 40 minutes after administration of MPTP
Description: as §1

Q: Which results are given for `CN1CC=C(c2ccccc2)CC1` [MPTP, 1-methyl-4-phenyl-1,2,3,6-tetrahydropyridine]?
A: levels of GSTmu (GSTmu): do not appear to be changed; mRNA levels of GSTpi (GSTpi; C57B1/6 animals): may be decreasing; mRNA levels of GSTpi (GSTpi; SW animals): not in SW animals
